As usually defined, the koff is the rate constant with which the complex falls apart. Broadly, the Kd is the equilibrium constant for the complex coming apart. High values mean weaker binding, low ones tighter binding.

Common to all, as to test: SPR
For experiment [1], the target named is T1, dual SH2 domains of SHP1.
T1 chain: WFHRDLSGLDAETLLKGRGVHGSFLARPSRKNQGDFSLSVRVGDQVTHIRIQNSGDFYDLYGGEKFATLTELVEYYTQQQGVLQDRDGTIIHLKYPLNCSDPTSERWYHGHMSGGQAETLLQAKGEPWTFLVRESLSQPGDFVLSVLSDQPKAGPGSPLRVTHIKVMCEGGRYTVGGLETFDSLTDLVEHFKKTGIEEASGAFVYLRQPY

Experiment [2] deals with T2, C-terminal SH2 domain of SHP1.
T2 chain: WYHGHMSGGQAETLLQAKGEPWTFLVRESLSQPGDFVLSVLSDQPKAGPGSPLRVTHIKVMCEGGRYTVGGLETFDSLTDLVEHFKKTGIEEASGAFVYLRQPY

Experiment [3] concerns the target T3, N-terminal SH2 domain of SHP2.
T3 chain: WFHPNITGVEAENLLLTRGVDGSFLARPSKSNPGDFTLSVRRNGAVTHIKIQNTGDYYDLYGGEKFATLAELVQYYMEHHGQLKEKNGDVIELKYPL

For experiment [4], the target named is T4, C-terminal SH2 domain of SHP2.
T4 chain: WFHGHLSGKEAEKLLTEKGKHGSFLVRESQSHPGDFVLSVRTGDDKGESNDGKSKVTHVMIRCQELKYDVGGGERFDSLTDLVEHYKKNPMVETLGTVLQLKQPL

Experiment [5] addresses T5, dual SH2 domains of SHP2.
T5 chain: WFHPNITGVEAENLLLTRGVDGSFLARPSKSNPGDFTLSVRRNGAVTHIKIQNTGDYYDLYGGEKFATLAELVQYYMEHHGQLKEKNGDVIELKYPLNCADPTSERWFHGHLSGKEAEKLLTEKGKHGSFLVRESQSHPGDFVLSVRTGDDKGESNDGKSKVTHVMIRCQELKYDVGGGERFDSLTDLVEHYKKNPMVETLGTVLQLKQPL

Experiment [6] deals with T1, dual SH2 domains of SHP1.
The target of experiment [7] is T2, C-terminal SH2 domain of SHP1.

B1: phosphorylated PD1 ITSM peptide (peptide)
chain: KTPEPPVPSVPEQTEYATIVFPSGMGTSS
modifications: phosphorylated (phospho-ITSM; residue not printed in the text shown); biotinylated for SPR
For B1, the koff is 0.000214 s⁻¹ in experiment [1]; 0.000339 s⁻¹ in experiment [2]; 0.00108 s⁻¹ in experiment [3]; 0.000694 s⁻¹ in experiment [4]; 0.00108 s⁻¹ in experiment [5]. Moreover, the values for the Kd in experiment [6] and in experiment [7] were 4.55 nM and 6.38 nM, respectively.

Source of the values: PMC10272835 (2023).
